Literature values in patent US8143245B2 (Pierre Fabre Medicament, priority 2006, dated 2012).

Tested on: M3 muscarinic receptors versus M2 muscarinic receptors
Details: cited from earlier work

CCN(CC)CC#CCOC(=O)C(O)(c1ccccc1)C1CCCCC1 (stereo not shown) [oxybutynine]
Selectivity between M3 and M2 receptor: more selective with respect to the M3 receptor than with respect to the M2
